Key:
[1] = target: T1, CRF2R (Homo sapiens, UniProt Q13324); test: CRF2R agonist activity (EC50, Emax), called comparative CRF binding; type: cell-based
T1 sequence (Q13324 1-411): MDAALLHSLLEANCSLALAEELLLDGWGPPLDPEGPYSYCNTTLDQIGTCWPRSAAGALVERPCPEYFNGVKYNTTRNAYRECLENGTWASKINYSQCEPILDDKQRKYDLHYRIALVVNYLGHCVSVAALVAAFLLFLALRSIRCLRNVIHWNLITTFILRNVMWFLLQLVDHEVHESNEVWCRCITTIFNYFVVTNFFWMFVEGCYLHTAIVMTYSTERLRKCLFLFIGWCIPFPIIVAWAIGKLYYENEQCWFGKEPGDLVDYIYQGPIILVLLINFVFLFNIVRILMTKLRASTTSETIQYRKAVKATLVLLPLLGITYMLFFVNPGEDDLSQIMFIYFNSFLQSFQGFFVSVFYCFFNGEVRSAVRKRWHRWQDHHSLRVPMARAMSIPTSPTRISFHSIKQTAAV
Description: (§1) The pharmacological activity and selectivity of the peptides of present invention can be determined using published test procedures. See, e.g, U.S. patent application Ser. No. 09/799,978. Because CRF2R and CRF1R are homologous proteins, it is expected that a certain proportion of agonists for CRF2R will also function as agonists of CRF1R. As discussed above, activation of CRF1R induces activation of the HPA axis since increased corticosteroid production leads to skeletal muscle atrophy. In most cases in which an increase in muscle mass or function is desired, it is not desirable to activate the HPA axis.
(§2) Because it is desirable to discriminate binding between CRF2R, as compared with CRF1R, the assays described above may be conducted using a cell, or membrane from a cell, which expresses only CRF2R or the assays can be conducted with a recombinant source of CRF2R. Cells expressing both forms of CRFR may be modified using homologous recombination to inactivate or otherwise disable the CRF1R gene. Alternatively, if the source of CRFR contains more than one CRFR type, the background signal produced by the receptor which is not of interest must be subtracted from the signal obtained in the assay. […] Known antagonists of CRFRs include, but, are not limited to, antalarmin (CRF1R selective), antisauvagine-30 (CRF2R selective) and astressin (nonselective for CRF1R/CRF2R).
(§3) Cell-based assays include the steps of contacting cells which express CRF1R or CRF2R with a peptide of the present invention or control and measuring activation of the CRFR by measuring the expression or activity of components of the CRFR signal transduction pathways.
(§4) As described in the background section above, CRFRs appear to couple through several different pathways including Gαs, Gαq or Gαi, depending upon the cell type. It is thought that agonist activation of CRFR allows the receptor to signal via any of these pathways, provided that the necessary pathway components are present in the particular cell type. Thus, to assay a particular peptide of the present invention for CRFR activation, an assay can use any of the signal transduction pathways as the readout even if the relevant cell type for treatment, in vivo, couples CRFR to skeletal muscle atrophy via a different pathway. […] Assays for measuring activation of these signaling pathways are known in the art.
(§5) For example, after contact with a peptide of the present invention, lysates of the cells can be prepared and assayed for induction of cAMP. cAMP is induced in response to Gαs activation. Because Gαs is activated by receptors other than CRFR and because a test peptide may be exerting its effect through CRFRs or by another mechanism, two control comparisons are relevant for determining whether the peptide increases levels of cAMP via activation of a CRFR. One control compares the cAMP level of cells contacted with the peptide and the cAMP level of cells contacted with a control compound (i.e., the vehicle in which the peptide is dissolved).
(§6) In one example, cAMP induction is measured with the use of DNA constructs containing the cAMP responsive element linked to any of a variety of reporter genes can be introduced into cells expressing CRFRs. Such reporter genes include, but are not limited to, chloramphenicol acetyltransferase (CAT), luciferase, glucuronide synthetase, growth hormone, fluorescent proteins (e.g., Green Fluorescent Protein), or alkaline phosphatase. Following exposure of the cells to the peptide, the level of reporter gene expression can be quantitated to determine the peptide's ability to increase cAMP levels and thus determine the peptide's ability to activate the CRFR.
(§7) In addition to using cells expressing full length CRFRs, cells can be engineered which express CRFRs containing the ligand binding domain of the receptor coupled to, or physically modified to contain, reporter elements or to interact with signaling proteins.

[2] = target: T2, CRF1R (Homo sapiens, UniProt P34998); test: CRF1R agonist activity (EC50, Emax), called comparative CRF binding; type: cell-based
T2 sequence (P34998 24-415): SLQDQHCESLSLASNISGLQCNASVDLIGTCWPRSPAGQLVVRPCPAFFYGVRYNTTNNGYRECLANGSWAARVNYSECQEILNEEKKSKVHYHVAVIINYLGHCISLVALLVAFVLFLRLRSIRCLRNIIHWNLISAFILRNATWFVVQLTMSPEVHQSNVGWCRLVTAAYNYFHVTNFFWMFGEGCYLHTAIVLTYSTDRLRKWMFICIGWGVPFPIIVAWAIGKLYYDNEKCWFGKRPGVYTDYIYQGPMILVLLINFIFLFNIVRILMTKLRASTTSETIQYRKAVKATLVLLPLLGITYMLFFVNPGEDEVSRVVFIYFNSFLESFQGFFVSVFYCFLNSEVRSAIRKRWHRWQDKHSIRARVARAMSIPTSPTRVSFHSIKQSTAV
Description: as §1, §2, §3, §4, §5, §6, §7

SMILES | EC50 [1] [nM] | EC50 [2] [nM]
CC[C@H](C)[C@H](NC(=O)[C@H](CCC(=O)O)NC(=O)[C@@H](NC(=O)[C@H](CCSC)NC(=O)[C@H](CCCCN)NC(=O)[C@H](CCCNC(=N)N)NC(=O)[C@H](CC(C)C)NC(=O)[C@H](CC(C)C)NC(=O)[C@H](CCC(N)=O)NC(=O)[C@H](Cc1ccccc1)NC(=O)[C@@H]1CCCN1C(=O)[C@H](CC(C)C)NC(=O)[C@H](CC(=O)O)NC(=O)[C@@H](NC(=O)[C@H](CO)NC(=O)[C@@H](NC(=O)[C@@H]1CCCN1C(=O)[C@@H]1CCCN1C(=O)CNC(=O)[C@@H]1CCC(=O)N1)[C@@H](C)CC)[C@@H](C)CC)[C@@H](C)CC)C(=O)N[C@@H](CCC(=O)O)C(=O)N[C@@H](CCCCN)C(=O)N[C@@H](CCC(N)=O)C(=O)N[C@@H](CCC(=O)O)C(=O)N[C@@H](CCCCN)C(=O)N[C@@H](CCC(=O)O)C(=O)N[C@@H](CCCCN)C(=O)N[C@@H](CCC(N)=O)C(=O)N[C@@H](CCC(N)=O)C(=O)N[C@@H](C)C(=O)N[C@H](C(=O)N[C@H](C(=O)N[C@@H](CC(N)=O)C(=O)N[C@@H](CCCNC(=N)N)C(=O)N[C@@H](CC(C)C)C(=O)N[C@@H](CC(C)C)C(=O)N[C@@H](CC(C)C)C(=O)N[C@@H](CC(=O)O)C(=O)N[C@@H](CCCNC(=N)N)C(=O)N[C@H](C(N)=O)C(C)C)[C@@H](C)O)[C@@H](C)O [compound 18] | 5.29 | 106
CC[C@H](C)[C@H](NC(=O)[C@H](CCC(=O)O)NC(=O)[C@@H](NC(=O)[C@H](CCSC)NC(=O)[C@H](CCCCN)NC(=O)[C@H](CCCNC(=N)N)NC(=O)[C@H](CC(C)C)NC(=O)[C@H](CC(C)C)NC(=O)[C@H](CCC(N)=O)NC(=O)[C@H](Cc1ccccc1)NC(=O)[C@@H]1CCCN1C(=O)[C@H](CC(C)C)NC(=O)[C@H](CC(=O)O)NC(=O)[C@@H](NC(=O)[C@H](CO)NC(=O)[C@@H](NC(=O)[C@@H]1CCCN1C(=O)[C@@H]1CCCN1C(=O)CNC(=O)[C@@H]1CCC(=O)N1)[C@@H](C)CC)[C@@H](C)CC)[C@@H](C)CC)C(=O)N[C@@H](CCC(=O)O)C(=O)N[C@@H](CCCCN)C(=O)N[C@@H](CCC(N)=O)C(=O)N[C@@H](CCC(=O)O)C(=O)N[C@@H](CCCCN)C(=O)N[C@@H](CCC(=O)O)C(=O)N[C@@H](CCCCN)C(=O)N[C@@H](CCC(N)=O)C(=O)N[C@@H](CCC(N)=O)C(=O)N[C@@H](C)C(=O)N[C@H](C(=O)N[C@H](C(=O)N[C@@H](CC(N)=O)C(=O)N[C@@H](C)C(=O)N[C@@H](CCCNC(=N)N)C(=O)N[C@@H](CC(C)C)C(=O)N[C@@H](CC(C)C)C(=O)N[C@@H](CC(=O)O)C(=O)N[C@H](C(=O)N[C@H](C(N)=O)C(C)C)[C@@H](C)O)[C@@H](C)O)[C@@H](C)O [compound 20] | 7.81 | 906
CC[C@H](C)[C@H](NC(=O)[C@H](CCC(=O)O)NC(=O)[C@@H](NC(=O)[C@H](CCSC)NC(=O)[C@H](CCCCN)NC(=O)[C@H](CCCNC(=N)N)NC(=O)[C@H](CC(C)C)NC(=O)[C@H](CC(C)C)NC(=O)[C@H](CCC(N)=O)NC(=O)[C@H](Cc1ccccc1)NC(=O)[C@@H]1CCCN1C(=O)[C@H](CC(C)C)NC(=O)[C@H](CC(=O)O)NC(=O)[C@@H](NC(=O)[C@H](CO)NC(=O)[C@@H](NC(=O)[C@@H]1CCCN1C(=O)[C@@H]1CCCN1C(=O)CNC(=O)[C@@H]1CCC(=O)N1)[C@@H](C)CC)[C@@H](C)CC)[C@@H](C)CC)C(=O)N[C@@H](CCC(=O)O)C(=O)N[C@@H](CCCCN)C(=O)N[C@@H](CCC(N)=O)C(=O)N[C@@H](CCC(=O)O)C(=O)N[C@@H](CCCCN)C(=O)N[C@@H](CCC(=O)O)C(=O)N[C@@H](CCCCN)C(=O)N[C@@H](CCC(N)=O)C(=O)N[C@@H](CCC(N)=O)C(=O)N[C@@H](C)C(=O)N[C@H](C(=O)N[C@H](C(=O)N[C@@H](CC(N)=O)C(=O)N[C@@H](C)C(=O)N[C@@H](CCCNC(=N)N)C(=O)N[C@@H](CC(C)C)C(=O)N[C@@H](CC(C)C)C(=O)N[C@@H](C)C(=O)N[C@H](C(=O)N[C@H](C(N)=O)C(C)C)[C@@H](C)O)[C@@H](C)O)[C@@H](C)O [compound 21] | 8.46 | 908
CC[C@H](C)[C@H](NC(=O)[C@@H](NC(=O)[C@H](CC(=O)O)NC(=O)[C@H](CC(C)C)NC(=O)[C@H](CC(C)C)NC(=O)[C@H](CC(C)C)NC(=O)[C@H](CCCNC(=N)N)NC(=O)[C@H](CC(N)=O)NC(=O)[C@H](CC(N)=O)NC(=O)[C@H](C)NC(=O)[C@H](C)NC(=O)[C@H](CCC(N)=O)NC(=O)[C@H](CCC(N)=O)NC(=O)[C@H](CCCCN)NC(=O)[C@H](CCC(=O)O)NC(=O)[C@H](CCCCN)NC(=O)[C@H](CCC(=O)O)NC(=O)[C@H](CCC(N)=O)NC(=O)[C@H](CCCCN)NC(=O)[C@H](CCC(=O)O)NC(=O)[C@@H](NC(=O)[C@H](CCC(=O)O)NC(=O)[C@@H](NC(=O)[C@H](CCSC)NC(=O)[C@H](CCCCN)NC(=O)[C@H](CCCNC(=N)N)NC(=O)[C@H](CC(C)C)NC(=O)[C@H](CC(C)C)NC(=O)CNC(=O)[C@@H](NC(=O)[C@H](CO)NC(=O)[C@H](CC(C)C)NC(=O)[C@H](CC(=O)O)NC(=O)[C@@H](NC(=O)[C@H](CO)NC(=O)[C@@H](NC(=O)[C@@H]1CCCN1C(=O)[C@@H]1CCCN1C(=O)CNC(=O)[C@@H]1CCC(=O)N1)[C@@H](C)CC)[C@@H](C)CC)[C@@H](C)CC)[C@@H](C)CC)[C@@H](C)CC)[C@@H](C)O)C(N)=O [compound 25] | 81 | 677
CC[C@H](C)[C@H](NC(=O)[C@@H](NC(=O)[C@H](CC(=O)O)NC(=O)[C@H](CC(C)C)NC(=O)[C@H](CC(C)C)NC(=O)[C@H](CC(C)C)NC(=O)[C@H](CCCNC(=N)N)NC(=O)[C@H](CC(N)=O)NC(=O)[C@H](CC(N)=O)NC(=O)[C@H](C)NC(=O)[C@H](C)NC(=O)[C@H](CCC(N)=O)NC(=O)[C@H](CCC(N)=O)NC(=O)[C@H](CCCCN)NC(=O)[C@H](CCC(=O)O)NC(=O)[C@H](CCCCN)NC(=O)[C@H](CCC(=O)O)NC(=O)[C@H](CCC(N)=O)NC(=O)[C@H](CCCCN)NC(=O)[C@H](CCC(=O)O)NC(=O)[C@@H](NC(=O)[C@H](CCC(=O)O)NC(=O)[C@@H](NC(=O)[C@H](CCSC)NC(=O)[C@H](CCCCN)NC(=O)[C@H](CCCNC(=N)N)NC(=O)[C@H](CC(C)C)NC(=O)[C@H](CC(C)C)NC(=O)[C@H](Cc1ccccc1)NC(=O)[C@@H](NC(=O)[C@@H]1CCCN1C(=O)[C@H](CC(C)C)NC(=O)[C@H](CC(=O)O)NC(=O)[C@@H](NC(=O)[C@H](CO)NC(=O)[C@@H](NC(=O)[C@@H]1CCCN1C(=O)[C@@H]1CCCN1C(=O)CNC(=O)[C@@H]1CCC(=O)N1)[C@@H](C)CC)[C@@H](C)CC)[C@@H](C)CC)[C@@H](C)CC)[C@@H](C)CC)[C@@H](C)O)C(N)=O [compound 29] | 16 | > 1000
